# Measured values: PubChem BioAssay AID652163 (Broad Institute, 2013)
# The chains behind the UniProt entries cited, without tags or fusion partners. Where a name states a change or a piece, a line headed by the entry shows the natural chain unless it says otherwise.
# UniProt P26447: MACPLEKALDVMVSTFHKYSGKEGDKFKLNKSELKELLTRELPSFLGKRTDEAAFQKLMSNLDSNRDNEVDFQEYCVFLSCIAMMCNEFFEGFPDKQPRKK
# This is a selection; strong and weak results do not stand in their true shares. The source made the active and inactive calls.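 Rule for the calls: active = mean inhibition of at least 70% across replicates, with every replicate also reaching that level; inconclusive = mean inhibition reaches 70% but some replicates fall short; inactive = mean inhibition below 70%.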
# Target: Protein S100-A4 (Homo sapiens) (UniProt P26447)
# Experiment: inhibitors of S100A4-myosin IIA peptide binding, primary screen, biochemical, fluorescence polarization, TAMRA-MyoIIA peptide (AID 652163)
# Details: at 10.7 µM, active compounds read high
row,SMILES,inhibition
1,CCN(/C(=N/P(=O)(N1CCOCC1)N1CCOCC1)N1CCOCC1)c1ccc(OC)cc1,inactive: 0.101%
2,Nc1ccc([As](=O)(O)c2ccc(N)cc2)cc1,inactive: -8.89%
3,C[N+]1=C2C=CC=CC=C2SC12C([N+](=O)[O-])=CC([N+](=O)[O-])=C[C-]2[N+](=O)[O-] (stereo not drawn),inactive: -9.15%
4,c1cc(-c2nn[nH]n2)ccc1-c1nn[nH]n1,inactive: -4.44%
5,CC(C)=N/N=C(\N)N[N+](=O)[O-],inactive: -5.7%
6,CC(C)c1nc(Nc2ccccc2)n(P(=O)(N(C)C)N(C)C)n1,inactive: 2.09%
7,COc1ccc(C2=NCC(CBr)S2)cc1 (stereo not drawn),inactive: -0.298%
8,Cc1ccc(NP(=O)(Oc2ccccc2)Oc2ccccc2)nc1,inactive: 6.01%
9,O=[N+]([O-])c1cc([N+](=O)[O-])c(CCNc2ccccc2)c([N+](=O)[O-])c1,inactive: -3.49%
10,O=[As](O)(c1ccccc1)c1ccc(O)cc1,inactive: 4.75%
11,CC(=O)NC(SC(=S)N(C)C)C(Cl)(Cl)Cl (stereo not drawn),inactive: -0.926%
12,O=[N+]([O-])c1ncn(CCn2cnc([N+](=O)[O-])n2)n1,inactive: -0.0015%
13,C/C(N)=N\P(=O)(OCc1ccccc1)OCc1ccccc1,inactive: -2.65%
14,Nc1ccc([As](=O)(O)c2ccc([N+](=O)[O-])cc2)cc1,inactive: 2.7%
15,C(Cc1nn[nH]n1)Cc1nn[nH]n1,inactive: -7.09%
16,O=P(Nc1ccccn1)(c1ccc(Br)cc1)c1ccc(Br)cc1,inactive: 15.9%
17,CN(C)C1(CNC(=O)c2ccc(Cl)c(S(N)(=O)=O)c2)CCCCC1,inactive: 4.89%
18,Nc1ccc(CCCCOc2ccccc2)cc1,inactive: -11.8%
19,COc1ccc(N)c([N+](=O)[O-])c1[N+](=O)[O-],inactive: 1.13%
20,O=P(Nc1nc2ccccc2s1)(c1ccccc1)c1ccccc1,inactive: -7.6%
21,C[C@H]1OP(=O)(Oc2ccccc2)[C@H](O)[C@H](O)[C@H]1N=[N+]=[N-] (stereo partly drawn),inactive: -3.96%
22,O=C(OC1CN2CCC1CC2)c1ccccc1 (stereo not drawn),inactive: -1.86%

row,SMILES,inhibition
1,Cc1ccc(OP(=O)(Nc2ccccn2)Oc2ccc(C)cc2)cc1,inactive: 5.18%
2,Cc1ccccc1OP(=O)(Nc1ccccn1)Oc1ccccc1C,inactive: -0.82%
3,CC(NC(=O)COC(=O)C(O)(c1ccccc1)c1ccccc1)c1ccccc1 (stereo not drawn),inactive: -4.02%
4,CN(C)C(=O)Oc1noc2ccccc12,inactive: -7.35%
5,O=c1c2cc([N+](=O)[O-])ccc2[nH]c2c([N+](=O)[O-])cc([N+](=O)[O-])cc12,inactive: -9.82%
6,c1ccc(-c2nn[nH]n2)c(-c2nn[nH]n2)c1,inactive: 0.386%
7,Cc1ccc(NP(=O)(Oc2cccc(C)c2)Oc2cccc(C)c2)nc1,inactive: -2.65%
8,CCNC(=S)/N=C(\N)N[N+](=O)[O-],inactive: 2.47%
9,O=C(NC1CCS(=O)(=O)C1)NP(=S)(Oc1ccccc1)Oc1ccccc1 (stereo not drawn),inactive: -0.957%
10,O=P1(N(CCCl)CCCl)OCCC2CCCCN21 (stereo not drawn),inactive: -2.73%
11,Cc1ccccc1CN(C)C(=O)COC(=O)C(O)(c1ccccc1)c1ccccc1,inactive: -0.214%
12,C[C@@H]1C=CCP(=O)(Oc2ccccc2)O1 (stereo partly drawn),inactive: 0.3%
13,C[C@H]1OP(=O)(Oc2ccccc2)C[C@@H]2O[C@@H]21 (stereo partly drawn),inactive: -0.887%
14,N#C/C(=C\c1ccc(N(CCBr)CCBr)cc1)C(N)=O,inactive: -3.05%
15,CC(=O)c1ccc(N2CC2c2ccncc2)cc1 (stereo not drawn),inactive: 8.81%
16,COC(=O)C1(C)COP(=O)(NCc2ccccc2)OC1 (stereo not drawn),inactive: -0.396%
17,CC(=O)Nc1ccc([As](=O)(O)O)c(O)c1,inactive: -1.05%
18,CC(=O)Nc1ccc(Oc2c([N+](=O)[O-])cc([N+](=O)[O-])cc2[N+](=O)[O-])cc1,inactive: 3.61%
19,CCOc1ccc(C2=NCC(CBr)S2)cc1 (stereo not drawn),inactive: -2.52%
20,CC(C)(C)C(=O)NC(Sc1ccccc1)C(Cl)(Cl)Cl (stereo not drawn),inactive: -4.53%
21,CCc1cc(O)c([N+](=O)[O-])c(C)c1[N+](=O)[O-],inactive: -20%
